Reference: ChEMBL document CHEMBL1154350 (Bioorg Med Chem Lett, 2009)

Tests used:
[1] = target: T1, Succinyl-diaminopimelate desuccinylase (Haemophilus influenzae (strain ATCC 51907 / DSM 11121 / KW20 / Rd), UniProt P44514); assay: Inhibition of Haemophilus influenzae recombinant DapE by competitive binding assay
T1 sequence (P44514 whole entry): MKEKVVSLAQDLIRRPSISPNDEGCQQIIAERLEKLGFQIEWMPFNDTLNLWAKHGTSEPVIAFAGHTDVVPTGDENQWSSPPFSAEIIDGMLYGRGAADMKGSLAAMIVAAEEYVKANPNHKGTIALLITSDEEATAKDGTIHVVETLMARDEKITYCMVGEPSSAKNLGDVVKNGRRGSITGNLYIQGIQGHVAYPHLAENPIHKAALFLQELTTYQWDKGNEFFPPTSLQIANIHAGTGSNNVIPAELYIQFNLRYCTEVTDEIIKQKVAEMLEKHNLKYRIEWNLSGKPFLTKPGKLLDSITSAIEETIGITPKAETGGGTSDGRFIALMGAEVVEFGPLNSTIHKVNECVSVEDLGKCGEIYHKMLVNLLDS

[2] = target: T1, Succinyl-diaminopimelate desuccinylase; assay: Inhibition of Haemophilus influenzae recombinant DapE

- Ki [1]: 56.9 µM
- IC50 [2]: 107 µM
SMILES: OB(O)c1ccccc1 [PHENYLBORONIC ACID]
